Antibody variant affinities, Ab-14 heavy chain, assay B

From the AlphaSeq antibody data of Li et al. 2023 (doi:10.1038/s41467-023-39022-2), copy in the FLAb collection.

Target: peptide PDVDLGDISGINAS, taken from heptad repeat 2 (HR2) of SARS-CoV-2 spike.

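These sequences belong to a second round, designed from the earlier measurements on random variants of the parent. Several design methods are mixed in this list. The scFvs were displayed on barcoded MATa yeast, the peptide on MATalpha yeast. Mating (16 h, 30 °C) was followed by selection of diploids and sequencing of their barcodes. The ratio of observed to expected reads was calibrated, replicate by replicate, on BCL2-family standards whose Kd was known from biolayer interferometry. Each pool was mated in six replicate cultures.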

The variants keep the light chain, the linker and the frameworks of Ab-14 (scFv order VH, a (GGGGS)3 linker, VL).
VH: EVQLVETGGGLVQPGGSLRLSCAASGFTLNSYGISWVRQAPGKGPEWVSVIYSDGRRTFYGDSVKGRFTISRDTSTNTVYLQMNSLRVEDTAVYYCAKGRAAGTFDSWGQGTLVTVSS
VL: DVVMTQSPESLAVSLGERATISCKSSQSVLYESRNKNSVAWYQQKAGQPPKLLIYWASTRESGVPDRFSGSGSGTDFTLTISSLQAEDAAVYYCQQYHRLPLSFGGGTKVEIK

Each variant is given by its three heavy chain CDRs, as the data file delimits them; those of the parent are GFTLNSYGIS, VIYSDGRRTFYGDSVK, GRAAGTFDS.
Scale: log10 of Kd in nM, estimated from mating counts; low values are strong binders.
"nd" marks a missing value. The strain was present, yet no cells mated with the target were sequenced in that replicate, which points to weak or no binding.
A sequence that the file lists under several names has all its replicates listed entry by entry, parted by semicolons.

CDR-H1 | CDR-H2 | CDR-H3 | log10 Kd, replicates | signal with controls
GFQLNEYGIS | VIYSDGRRTFYGDSVK | GRAAGTFCV | nd / nd / nd / nd / nd / nd | 0 of 18
GFNIQEYGIS | VIYADGHRTAYAEPVK | GEDGGTIDT | 0.54 / -0.76 / 0.04 / -0.81 / 0.00 / -0.16 | 0 of 18
KFSLNSYGIS | VIYSDGKRTFYADSVK | GRTAGTFDS | 1.23 / 1.08 / 0.64 / 0.54 / 0.55 / 0.60 | 0 of 18
GFDLNEYGIS | VIYADGKRTAYIDSVK | GNVAGTFDT | -0.79 / -0.73 / -0.82 / -1.04 / -1.24 / -0.76 | 0 of 18
GFDLNEYGIS | VIYADGMRTFYDDSVK | GQLAGTFDL | -0.32 / -0.43 / -0.40 / -0.66 / -0.47 / -0.26 | 0 of 18
GFTLNSYGIS | VIYSDGRRTFYTDSVK | GQLAGTFDS | 0.79 / 1.28 / 1.52 / 0.38 / 1.13 / 1.25 | 1 of 18 (1.46)
GFDLNSYGIS | VIYSDGRRTPYGDSVK | GRAAGWFNS | nd / nd / nd / nd / nd / nd | 0 of 18
KFTLNSYGIS | VIYSDGRRTFYADDVE | GRAAQTNDS | nd / nd / nd / nd / nd / nd | 1 of 18 (1.43)
GFDLQEYGIS | VIFADGLRTAYSDKVK | GQINGYFVD | nd / nd / nd / nd / nd / nd | 0 of 18
GTKLSSYGYS | VIYSDGRRTFYGDSVK | GRVRGCFPS | nd / nd / nd / nd / nd / nd | 0 of 18
GFDLNEYGIS | VIYADGQRTYYADSVK | GNTAGTFDV | -0.08 / -0.55 / -0.60 / -0.30 / -0.54 / -0.23 | 0 of 18
GFTLNQYGIS | VIYSDGRRTAYGDSVK | GRAAGTFDS | -0.04 / -0.02 / -0.22 / 0.15 / -0.25 / 0.28 | 1 of 18 (1.41)
GFNLNSYGIS | VIYSDGRRTFYTDAVK | CRAAGQFDS | 0.29 / 1.60 / 1.64 / 0.54 / 0.77 / 1.20 | 0 of 18
GFDLNSYGIS | VIYSDGRRTFYQDSVK | GRTAGTFDT | 0.51 / 0.45 / 0.18 / 0.54 / 0.23 / 0.82 | 0 of 18
GFDLNEYGIS | VIYADGRRTFYSDSVK | GQTAGTFDS | -0.16 / 0.11 / -0.30 / -0.40 / -0.21 / -0.08 | 0 of 18
GFWLNSYGIS | VIYADGRRTFYGDSVK | GHAAGTFDS | 0.93 / 2.01 / nd / 1.51 / 0.69 / 0.74 | 0 of 18
GFDLDEYGIS | VIYADGSRTAYTDSVK | GNVAGTFDL | -0.54 / -0.49 / 0.01 / -0.19 / -0.23 / -0.21 | 0 of 18
GFDLNSYGIS | VIYSDGRRTFYGDSVK | GRCQGTFDS | nd / nd / nd / nd / nd / 3.21 | 0 of 18
GFTLTSYGIS | VIYSDGRRTFYGDSVK | GRAAVTVDS | nd / nd / nd / nd / nd / nd | 0 of 18
GFQLNEYGIS | VIYSDGRRTFYGDQVK | GQAAGTFDS | nd / 0.78 / nd / -0.19 / -0.17 / 0.42 | 0 of 18
GFTLNEYGIS | VIYSDGRNTWYTDSAK | GREAGTFDV | nd / 0.15 / nd / nd / nd / nd | 0 of 18
GFTLNSYGIS | VKYSDGRRTFYSDSVK | GRAGGTFDS | 0.65 / 0.50 / 0.13 / -0.12 / -0.06 / 0.23 | 0 of 18
KFELNSYGIS | VIYSDGRRTFYKDSVK | GRTAGTFDS | nd / nd / nd / nd / 1.86 / 1.93 | 0 of 18
GFDLNEYGIS | VIYADGMRTYYADSVK | GANAGTFDI | 0.13 / 2.71 / 0.63 / -0.60 / 0.33 / 0.56 | 0 of 18
GFDLNEYGIS | VIYADGVRTAYSDDVK | GENAGTFDV | 0.55 / 0.03 / 0.10 / 0.63 / 0.16 / 0.59 | 2 of 18 (2.07)
GFTLDSYGIS | VIYSDGRRTFYADSVK | GRAAGTFDR | nd / 1.33 / 1.51 / 1.67 / 0.99 / nd | 0 of 18
GFKLNSYGIS | VIYSDGRRTFYTDSVK | GREAGTFDS | 0.72 / 0.12 / -0.30 / -0.29 / 0.31 / 0.32 | 0 of 18
GFSLNSYGIS | VIYADGRRTFYGDSVK | GSAAGTFDS | 0.27 / 0.41 / 0.52 / 0.84 / 0.28 / 0.35 | 0 of 18
GFDLNEYGIS | VIYADGQRTFYADSVK | GEAAGTFDS | -0.87 / -0.89 / -1.00 / -1.28 / -1.10 / -0.66 | 0 of 18
GFTLESYGIS | VIYSDGRRTFYSDSVK | GKAGGTFDS | nd / 1.49 / 2.97 / 3.03 / nd / 1.99 | 0 of 18
GFKLDEFGIS | VIYADGHRVAYSDKVK | GHNVDAFFV | nd / nd / nd / nd / nd / nd | 0 of 18
GFTIESYGIS | VIYSDGRRTFYHDSVK | GRACGTFDS | nd / nd / nd / nd / nd / nd | 0 of 18
GFTLNSYGIS | VIYSDGRRTFYGDDVK | GDAAGTFDS | 2.48 / 1.57 / 1.70 / 1.89 / 1.44 / 1.63 | 0 of 18
EFDLQEYGIS | VIYADGKREAYKDDFK | GQVAGTFDE | 0.51 / 0.47 / 0.57 / 0.64 / 0.16 / 1.51 | 1 of 18 (1.39)
GFDLNEYGIS | VIYADGLRTFYADSVK | GNVAGTFDT | -0.46 / -0.55 / -0.75 / -0.55 / -0.88 / -0.26 | 0 of 18
GFTLESYGIS | VIYSDGRRTFYGDSVK | GRTAGTFDS | 1.47 / 0.49 / nd / 0.79 / 0.16 / 0.63; 2.38 / 0.55 / 1.95 / 0.87 / 0.82 / 0.79 | 0 of 36
GFTLNSYGIS | VIYSDGRRTFYHDEVK | GRAAGTFDS | nd / nd / nd / nd / nd / 3.84 | 0 of 18
GFDLNEYGIS | VIYADGQRTAYADNVK | GNVAGTFDV | -0.17 / -0.52 / -0.41 / -0.31 / -0.29 / -0.23 | 0 of 18
GFDLNEYGIS | VIYADGQRTAYSDSVK | GENAGTFDI | -0.17 / -0.05 / -0.27 / -0.69 / -0.88 / -0.08 | 0 of 18
GQDLAEYGIS | VIYADGKRTMYANDVK | GTNVGQGGT | nd / nd / nd / nd / nd / nd | 1 of 18 (3.27)
GFTLNSYGIS | VIYSDGRRTFYGDSVK | GRNAGTFHS | nd / nd / nd / nd / nd / nd | 0 of 18
GFDLMEYGIS | VIYADGVRTAYQDDVK | GQEAGFLYT | nd / 1.66 / nd / nd / nd / nd | 0 of 18
GFDLNEYGIS | VIYADGRRTAYDDSVK | GQVAGTFDE | -0.56 / -0.76 / -0.97 / -0.75 / -1.00 / -0.57 | 0 of 18
GFDLNEYGIS | VIYADGVRTAYADDVK | GTNAGTFDI | 0.52 / -0.24 / -0.10 / -0.03 / -0.09 / 0.14 | 0 of 18
GFDLDEYGIS | VIYADGMRTAYTDSVK | GETAGTFDT | 0.09 / -0.22 / -0.42 / -0.43 / 0.14 / 0.34 | 0 of 18
GFDLDEYGIS | VIYADGRRKAYADSVK | GENAGTFDV | 0.01 / -0.55 / -0.31 / -1.14 / -1.27 / 0.45 | 0 of 18
GPTLNSYGIS | VIYSDGRRTFYSDSVK | GSAGGTFDS | nd / nd / nd / nd / nd / nd | 0 of 18

For reference, 6 entries of the list once more:

CDR-H1,CDR-H2,CDR-H3,"log10 Kd, replicates",signal with controls
GFDLNEYGIS,VIYADGQRTAYADNVK,GNVAGTFDV,-0.17 / -0.52 / -0.41 / -0.31 / -0.29 / -0.23,0 of 18
GFTLESYGIS,VIYSDGRRTFYGDSVK,GRTAGTFDS,1.47 / 0.49 / nd / 0.79 / 0.16 / 0.63; 2.38 / 0.55 / 1.95 / 0.87 / 0.82 / 0.79,0 of 36
GFDLMEYGIS,VIYADGVRTAYQDDVK,GQEAGFLYT,nd / 1.66 / nd / nd / nd / nd,0 of 18
KFELNSYGIS,VIYSDGRRTFYKDSVK,GRTAGTFDS,nd / nd / nd / nd / 1.86 / 1.93,0 of 18
GQDLAEYGIS,VIYADGKRTMYANDVK,GTNVGQGGT,nd / nd / nd / nd / nd / nd,1 of 18 (3.27)
GFTLNEYGIS,VIYSDGRNTWYTDSAK,GREAGTFDV,nd / 0.15 / nd / nd / nd / nd,0 of 18

The authors' rule: three or more of the six replicates give a measured affinity, fewer mean a poor binder.
The parent sequence was in this pool as ten entries: three were never detected, three once, and four in most replicates, with averages from 0.34 to 2.37.
The range of this assay differs from that of the first round, and the authors advise against merging the two.
Empty control strains, which show no peptide, gave a signal in 1% of pairings with all heavy chain designs; the median was 2.08 and 95% of these signals were weaker than 0.84. No background was subtracted. For each scFv, signals with the empty controls are counted beside the result, with their mean in brackets.